Experimental data taken from US5990096A (priority 1992, dated 1999).
Where two headings read alike, the source gives them in different places.

Conditions: human, in vivo

Compound: O=C(O)Cc1ccccc1Nc1c(Cl)cccc1Cl [V]
- Diclofenac concentration: ND (key: ND: NONE DETECTED (>5.0 ng ml^-1))
- Diclofenac concentration (topical_or_ocular, 15 min): ND (key: ND: NONE DETECTED (>5.0 ng ml^-1))
- Diclofenac concentration (topical_or_ocular, 30 min): ND (key: ND: NONE DETECTED (>5.0 ng ml^-1))
- Diclofenac concentration (topical_or_ocular, 180 min): ND (key: ND: NONE DETECTED (>5.0 ng ml^-1))
- Diclofenac concentration (topical_or_ocular, 240 min): ND (key: ND: NONE DETECTED (>5.0 ng ml^-1))
- Diclofenac concentration (topical_or_ocular, 360 min): ND (key: ND: NONE DETECTED (>5.0 ng ml^-1))
- Diclofenac concentration (topical_or_ocular, 480 min): ND (key: ND: NONE DETECTED (>5.0 ng ml^-1))
- Diclofenac concentration (topical_or_ocular, 600 min): ND (key: ND: NONE DETECTED (>5.0 ng ml^-1))
- Diclofenac concentration (topical_or_ocular, 720 min): ND (key: ND: NONE DETECTED (>5.0 ng ml^-1))
